Assay: Plasma pharmacokinetics of AR-42 in AML patients
Format: in vivo, human
Settings: day 5

For AR-42, the “fold increase in AUC between the 20 and 40 mg dose levels” value was 1.7 fold and the “fold increase in Cmax between the 20 and 40 mg dose levels” value was 2.4 fold.

Reference: article PMC7375689 (Leukemia & lymphoma, 2020)
